Results: patent US20150261911A1, “CRYSTAL STRUCTURE” (Heptares Therapeutics Limited, priority 2014, published 2015)

How the values were obtained:
CRF1R V279A(5.46) = CRF1R V279A(5.46) (Homo sapiens, UniProt P34998, V279A); experiment: Solubilised whole cell ligand binding, alanine mutagenesis; settings: mutation V279A(5.46); percentage of wild-type CRF1R total binding, normalized for expression (eGFP); tested as the radiolabelled form
Description: (§1) HEK293T cells transiently transfected with CRF1R constructs were incubated in buffer (50mMTris-HCl pH 7.5, 150mMNaCl, EDTA-free protease inhibitors) with 30 nM [^3H]CP-376395, and 120 nM cold CP-376395 (Tocris) for 18 hours at room temperature. Reactions were transferred to ice and all subsequent steps performed at 4° C. Cells were solubilized in 1% (w/v) n-dodecyl-β-D-maltopyranoside (DDM, Affymetrix) for 1 hour and crude lysates cleared by centrifugation at 16.000×g for 15 minutes. Thermostability of the receptor was measured by incubation at varying temperatures for 30 minutes followed by separation of excess and unbound radioligand by gel filtration. Levels of ligand-bound receptor were then determined using a liquid scintillation counter.
(§2) For saturation binding experiments, membranes isolated from HEK293T cells transiently expressing wild-type CRF1R (15 μg/well), CRF1R StaR (6 μg/well), CRF1R StaR with T4L fusion (20 μg/well), and CRF1R-#105 (20 μg/well) were incubated in buffer (50mMTris-HCl pH 7.5, 150 mM NaCl, 0.1% (w/v) PEI, EDTA-free protease inhibitors) with [^3H]CP-376395 (0-60 nM) in the presence or absence of 30 uM cold CP-376395 in a final volume of 500 μl. Final DMSO concentration in each reaction was 5% (v/v). Membranes were incubated for 18 hours at room temperature before being terminated by rapid filtration through 96-well GF/C UniFilter plates pre-soaked in 0.3% (w/v) PEI, followed by washing with PBS with 0.15% (w/v) CHAPS. Plates were dried, 50 μl Ultima Gold-F added per well and bound ligand measured using a Packard Microbeta counter. Data were analyzed using a global fitted one-site binding hyperbola in GraphPad Prism v5 to generate Kd. For solubilized whole cell ligand binding experiments, HEK293T cells transiently expressing eGFP-tagged wild-type CRF1R or single point mutants were treated as described above for thermostability experiments, without the 30 minute heating step. Specific binding was determined by subtracting untransfected controls. Expression of each construct was quantified by eGFP fluorescence of whole cells measured at Ex/Em of 488/520 nm.

CRF1R L280A(5.47) = CRF1R L280A(5.47) (Homo sapiens, UniProt P34998, L280A); experiment: as above; settings: mutation L280A(5.47); percentage of wild-type CRF1R total binding, normalized for expression (eGFP); tested as the radiolabelled form
Description: as §1, §2

CRF1R L323A(6.49) = CRF1R L323A(6.49) (Homo sapiens, UniProt P34998, L323A); experiment: as above; settings: mutation L323A(6.49); percentage of wild-type CRF1R total binding, normalized for expression (eGFP); tested as the radiolabelled form
Description: as §1, §2

CRF1R I290A(5.57) = CRF1R I290A(5.57) (Homo sapiens, UniProt P34998, I290A); experiment: as above; settings: mutation I290A(5.57); percentage of wild-type CRF1R total binding, normalized for expression (eGFP); tested as the radiolabelled form
Description: as §1, §2

CRF1R N283A(5.50) = CRF1R N283A(5.50) (Homo sapiens, UniProt P34998, N283A); experiment: as above; settings: mutation N283A(5.50); percentage of wild-type CRF1R total binding, normalized for expression (eGFP); tested as the radiolabelled form
Description: as §1, §2

CRF1R F284A(5.51) = CRF1R F284A(5.51) (Homo sapiens, UniProt P34998, F284A); experiment: as above; settings: mutation F284A(5.51); percentage of wild-type CRF1R total binding, normalized for expression (eGFP); tested as the radiolabelled form
Description: as §1, §2

CRF1R L319A(6.45) = CRF1R L319A(6.45) (Homo sapiens, UniProt P34998, L319A); experiment: as above; settings: mutation L319A(6.45); percentage of wild-type CRF1R total binding, normalized for expression (eGFP); tested as the radiolabelled form
Description: as §1, §2

CRF1R M206A(3.47) = CRF1R M206A(3.47) (Homo sapiens, UniProt P34998, M206A); experiment: as above; settings: mutation M206A(3.47); percentage of wild-type CRF1R total binding, normalized for expression (eGFP); tested as the radiolabelled form
Description: as §1, §2

CRF1R G324A(6.50) = CRF1R G324A(6.50) (Homo sapiens, UniProt P34998, G324A); experiment: as above; settings: mutation G324A(6.50); percentage of wild-type CRF1R total binding, normalized for expression (eGFP); tested as the radiolabelled form
Description: as §1, §2

CRF1R T316A(6.42) = CRF1R T316A(6.42) (Homo sapiens, UniProt P34998, T316A); experiment: as above; settings: mutation T316A(6.42); percentage of wild-type CRF1R total binding, normalized for expression (eGFP); tested as the radiolabelled form
Description: as §1, §2

CRF1R L320A(6.46) = CRF1R L320A(6.46) (Homo sapiens, UniProt P34998, L320A); experiment: as above; settings: mutation L320A(6.46); percentage of wild-type CRF1R total binding, normalized for expression (eGFP); tested as the radiolabelled form
Description: as §1, §2

CRF1R F203A(3.44) = CRF1R F203A(3.44) (Homo sapiens, UniProt P34998, F203A); experiment: as above; settings: mutation F203A(3.44); percentage of wild-type CRF1R total binding, normalized for expression (eGFP); tested as the radiolabelled form
Description: as §1, §2

CRF1R Y327A(6.53) = CRF1R Y327A(6.53) (Homo sapiens, UniProt P34998, Y327A); experiment: as above; settings: mutation Y327A(6.53); percentage of wild-type CRF1R total binding, normalized for expression (eGFP); tested as the radiolabelled form
Description: as §1, §2

CRF1R L287A(5.54) = CRF1R L287A(5.54) (Homo sapiens, UniProt P34998, L287A); experiment: as above; settings: mutation L287A(5.54); percentage of wild-type CRF1R total binding, normalized for expression (eGFP); tested as the radiolabelled form
Description: as §1, §2

CRF1R Q355A(7.49) = CRF1R Q355A(7.49) (Homo sapiens, UniProt P34998, Q355A); experiment: as above; settings: mutation Q355A(7.49); percentage of wild-type CRF1R total binding, normalized for expression (eGFP); tested as the radiolabelled form
Description: as §1, §2

wild-type CRF1R = wild-type CRF1R (Homo sapiens, UniProt P34998); experiment: Saturation binding of [3H]CP-376395 to HEK293T membranes; settings: read-out: Mean Kd [^3H]CP-376395, mean of three experiments, standard deviation in parentheses, tested as the radiolabelled form
Description: (§3) HEK293T cells were maintained in culture in DMEM supplemented with 10% (v/v) fetal bovine serum (FBS, Sigma-Aldrich) and passaged twice weekly. Cells were transfected with CRF1R constructs using GeneJuice (Merck Millipore) according to manufacturer's instructions and harvested after 48 hours using PBS supplemented with EDTA-free protease inhibitors (Roche). Membranes for use in radioligand binding assays were prepared as previously described (Robertson et al, 2011).
as §2

CRF1R-#105 = experiment: as above; settings: read-out: Mean Kd [^3H]CP-376395, mean of three experiments, standard deviation in parentheses, tested as the radiolabelled form
Description: as §3, §2

CRF1R StaR = CRF1R StaR (Homo sapiens, UniProt P34998, F260A/F330A/I277A/K228A/L144A/S160A/S222A/S349A/V120A/W156A/Y309A/Y363A); experiment: as above; settings: read-out: Mean Kd [^3H]CP-376395, mean of three experiments, standard deviation in parentheses, tested as the radiolabelled form
Description: as §3, §2

[1] = biological target: CRF1R StaR with T4L fusion (Homo sapiens, UniProt P34998, C54T/F260A/F330A/I277A/K228A/L144A/S160A/S222L/S349A/V120A/W156A/Y309A/Y363A); experiment: as above; settings: read-out: Mean Kd [^3H]CP-376395, CRF1R StaR T4, mean of three experiments, standard deviation in parentheses, tested as the radiolabelled form
Description: as §3, §2

Kd (wild-type CRF1R): 7.5 nM
Kd (CRF1R StaR): 1.5 nM
Kd [1]: 6.7 nM
Structure (SMILES): CCC(CC)Nc1cc(C)nc(Oc2c(C)cc(C)cc2C)c1C [CP-376395]
Normalised % wt [^3H]CP-376395 binding (CRF1R V279A(5.46)): 18%
Normalised % wt [^3H]CP-376395 binding (CRF1R L280A(5.47)): 1%
Normalised % wt [^3H]CP-376395 binding (CRF1R L323A(6.49)): 26%
Normalised % wt [^3H]CP-376395 binding (CRF1R I290A(5.57)): 5%
Normalised % wt [^3H]CP-376395 binding (CRF1R N283A(5.50)): 0%
Normalised % wt [^3H]CP-376395 binding (CRF1R F284A(5.51)): 60%
Normalised % wt [^3H]CP-376395 binding (CRF1R L319A(6.45)): 120%
Normalised % wt [^3H]CP-376395 binding (CRF1R M206A(3.47)): 8%
Normalised % wt [^3H]CP-376395 binding (CRF1R G324A(6.50)): 41%
Normalised % wt [^3H]CP-376395 binding (CRF1R T316A(6.42)): 47%
Normalised % wt [^3H]CP-376395 binding (CRF1R L320A(6.46)): 33%
Normalised % wt [^3H]CP-376395 binding (CRF1R F203A(3.44)): 1%
Normalised % wt [^3H]CP-376395 binding (CRF1R Y327A(6.53)): 8%
Normalised % wt [^3H]CP-376395 binding (CRF1R L287A(5.54)): 5%
Normalised % wt [^3H]CP-376395 binding (CRF1R Q355A(7.49)): 101%
Kd (CRF1R-#105): 5 nM
